In the experiment the target is Androgen receptor (Homo sapiens, UniProt P10275). As to the kind of experiment: Displacement of [3H]DHT from androgen receptor of human MDA-453 cells. Background: Displacement assays read how much labelled ligand stays bound in the presence of the test substance.

By UniProt entry, the sequences of proteins in these tests, tags left out. Where a name states a change or a piece, a line headed by the entry shows the natural chain unless it says otherwise.
UniProt P10275: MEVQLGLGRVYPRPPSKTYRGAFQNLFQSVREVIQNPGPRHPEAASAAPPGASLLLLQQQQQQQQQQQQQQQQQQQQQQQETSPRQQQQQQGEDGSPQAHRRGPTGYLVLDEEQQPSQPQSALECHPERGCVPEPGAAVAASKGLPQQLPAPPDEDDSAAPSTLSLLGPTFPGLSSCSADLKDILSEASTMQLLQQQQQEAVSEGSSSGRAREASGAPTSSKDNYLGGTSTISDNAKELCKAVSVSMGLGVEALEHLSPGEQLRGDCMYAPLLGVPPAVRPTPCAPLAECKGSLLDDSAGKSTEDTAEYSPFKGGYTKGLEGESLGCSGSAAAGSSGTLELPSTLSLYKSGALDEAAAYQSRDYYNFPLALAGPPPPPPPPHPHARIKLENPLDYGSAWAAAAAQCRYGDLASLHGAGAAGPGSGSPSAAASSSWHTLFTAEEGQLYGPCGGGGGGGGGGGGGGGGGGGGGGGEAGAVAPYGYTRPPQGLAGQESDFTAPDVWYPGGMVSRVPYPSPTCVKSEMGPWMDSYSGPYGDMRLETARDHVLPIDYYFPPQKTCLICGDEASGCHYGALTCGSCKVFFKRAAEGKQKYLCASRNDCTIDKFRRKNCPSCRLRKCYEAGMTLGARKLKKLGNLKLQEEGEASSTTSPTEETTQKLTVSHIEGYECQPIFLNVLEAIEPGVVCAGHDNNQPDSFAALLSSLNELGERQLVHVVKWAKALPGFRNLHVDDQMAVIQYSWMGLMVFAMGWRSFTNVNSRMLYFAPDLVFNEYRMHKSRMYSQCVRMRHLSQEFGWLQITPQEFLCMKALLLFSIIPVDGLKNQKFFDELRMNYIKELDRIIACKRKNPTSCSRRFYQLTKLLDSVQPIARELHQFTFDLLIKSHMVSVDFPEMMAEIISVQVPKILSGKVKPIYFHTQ

pKi: −log10 of the molar value.

What is called pKi is −log10 of the Ki, conventionally taken in molar units.

In turn, `CC(C)(C)OC(=O)N1C[C@@H]2C[C@H]1[C@H]1C(=O)N(c3ccc([N+](=O)[O-])c4ccccc34)C(=O)N21` had a negative-log Ki (pKi) of 5.99.

These data come from ChEMBL document CHEMBL1138730, “The synthesis and evaluation of [2.2.1]-bicycloazahydantoins as androgen receptor antagonists” (Bioorg Med Chem Lett, 2004).
